Amino acid sequences for entries named in this document (tags omitted).
UniProt P97612, whole entry: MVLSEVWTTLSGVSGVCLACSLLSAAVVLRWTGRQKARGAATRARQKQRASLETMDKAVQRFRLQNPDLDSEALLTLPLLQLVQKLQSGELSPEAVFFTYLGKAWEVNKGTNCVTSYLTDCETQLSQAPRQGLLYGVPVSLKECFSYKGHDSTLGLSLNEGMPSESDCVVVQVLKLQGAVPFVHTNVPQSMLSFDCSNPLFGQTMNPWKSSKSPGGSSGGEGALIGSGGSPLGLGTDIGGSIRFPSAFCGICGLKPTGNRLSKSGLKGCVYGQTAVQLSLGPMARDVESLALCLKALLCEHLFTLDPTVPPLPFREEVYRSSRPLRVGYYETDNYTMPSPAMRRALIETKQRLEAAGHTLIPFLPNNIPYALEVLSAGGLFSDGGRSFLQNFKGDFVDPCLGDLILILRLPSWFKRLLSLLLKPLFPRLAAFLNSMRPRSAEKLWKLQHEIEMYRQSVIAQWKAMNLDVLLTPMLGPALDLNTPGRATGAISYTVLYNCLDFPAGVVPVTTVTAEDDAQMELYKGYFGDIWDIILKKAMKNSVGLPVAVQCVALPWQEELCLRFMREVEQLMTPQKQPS

According to patent US8735406B2, “8-oxodihydropurine derivative” (Dainippon Sumitomo Pharma Co., Ltd., priority 2009, dated 2014):

Target: FAAH (Rattus norvegicus, UniProt P97612)
Assay: Determination of FAAH inhibitory activity in rat (rat brain membrane preparations, [3H]-anandamide hydrolysis)
[1] = 100 nM test substance, tested form: HCl
[2] = read-out: FAAH Inhibition IC50, test substance 0.1 nM to 1 μM, tested form: HCl
[3] = read-out: FAAH Inhibition IC50, test substance 0.1 nM to 1 μM

| FAAH Inhibition, Inhibition Rate at 100 nM (100 nM test substance) [%] | IC50 [3] [nM] | Compound | other results |
| --- | --- | --- | --- |
| – | – | Cn1c(=O)n(C(=O)N2CCC2)c2nc(CCc3ccc(OCCF)cc3)ncc21 | FAAH Inhibition, Inhibition Rate at 100 nM [1]: 40%; IC50 [2]: 128 nM |
| – | – | COCCOCc1ncc2c(n1)n(C)c(=O)n2C(=O)N1CC(c2ccc(F)cc2)C1 | FAAH Inhibition, Inhibition Rate at 100 nM [1]: 119%; IC50 [2]: 3 nM |
| – | – | Cn1c(=O)n(C(=O)N2CCC2)c2nc(CCc3c(F)cccc3F)ncc21 | FAAH Inhibition, Inhibition Rate at 100 nM (at 100 nM): 91%; IC50 (read-out: FAAH Inhibition IC50): 22 nM |
| 80 | 32 | CCCOCc1ncc2c(n1)n(C)c(=O)n2C(=O)N1CC(c2cccc(C(F)(F)F)c2)C1 | – |
| – | – | Cn1c(=O)n(C(=O)N2CCC2)c2nc(CCc3cccc(F)c3F)ncc21 | FAAH Inhibition, Inhibition Rate at 100 nM (at 100 nM): 103%; IC50 (read-out: FAAH Inhibition IC50): 8 nM |
| 88 | 98 | CCOc1ccc(CCc2ncc3c(n2)n(C(=O)N2CCC2)c(=O)n3C)cc1 | – |
| 82 | 40 | CCCOCc1ncc2c(n1)n(C)c(=O)n2C(=O)N1CC(c2ccc(OCC)cc2)C1 | – |
| – | – | Cn1c(=O)n(C(=O)N2CCC2)c2nc(CCc3cccc(OC4CCC4)c3)ncc21 | FAAH Inhibition, Inhibition Rate at 100 nM [1]: 80%; IC50 [2]: 39 nM |
| 86 | 22 | Cn1c(=O)n(C(=O)N2CCC2)c2nc(-c3cccc(OCC(F)F)c3)ncc21 | – |
| 76 | 25 | CCOCc1ncc2c(n1)n(C)c(=O)n2C(=O)N1CC(c2cccc(C(F)(F)F)c2)C1 | – |
| – | – | Cn1c(=O)n(C(=O)N2CCC2)c2nc(CCc3ccccc3C(F)(F)F)ncc21 | FAAH Inhibition, Inhibition Rate at 100 nM (at 100 nM): 98%; IC50 (read-out: FAAH Inhibition IC50): 8 nM |
| 96 | 25 | Cn1c(=O)n(C(=O)N2CCC2)c2nc(CCc3cccc(OCC4CC4)c3)ncc21 | – |
| 86 | 98 | Cn1c(=O)n(C(=O)N2CCC2)c2nc(CCc3ccc(C4CC4)c(F)c3)ncc21 | – |
| 69 | 47 | CN(C)C(=O)n1c(=O)n(C)c2cnc(CCc3ccccc3)nc21 | – |
| – | – | Cn1c(=O)n(C(=O)N2CCC2)c2nc(CCc3ccc(OC4CCCC4)cc3)ncc21 | FAAH Inhibition, Inhibition Rate at 100 nM [1]: 109%; IC50 [2]: 7 nM |
| – | – | Cn1c(=O)n(C(=O)N2CCC2)c2nc(CCc3ccccc3)ncc21 | FAAH Inhibition, Inhibition Rate at 100 nM (at 100 nM): 84%; IC50 (read-out: FAAH Inhibition IC50): 20 nM |
| 100 | 7 | Cn1c(=O)n(C(=O)N2CCC2)c2nc(CCc3ccc(OC(F)F)cc3)ncc21 | – |
| 58 | 100 | CN(C)C(=O)n1c(=O)n(C)c2cnc(CCc3cccc(OC4CCC4)c3)nc21 | – |
| 98 | 10 | CCc1cccc(CCc2ncc3c(n2)n(C(=O)N2CCC2)c(=O)n3C)c1 | – |
| – | – | Cn1c(=O)n(C(=O)N2CCC2)c2nc(CCc3cccc(OC(F)(F)F)c3)ncc21 | FAAH Inhibition, Inhibition Rate at 100 nM (at 100 nM): 101%; IC50 (read-out: FAAH Inhibition IC50): 6 nM |
| 43 | > 100 | COc1ccccc1-c1ncc2c(n1)n(C(=O)N1CCCC1)c(=O)n2C | – |
| – | – | Cn1c(=O)n(C(=O)N2CCC2)c2nc(CCc3cccc(OCC(F)F)c3)ncc21 | FAAH Inhibition, Inhibition Rate at 100 nM [1]: 69%; IC50 [2]: 95 nM |
| – | – | COc1cccc(CCc2ncc3c(n2)n(C(=O)N2CCC2)c(=O)n3C)c1 | FAAH Inhibition, Inhibition Rate at 100 nM (at 100 nM): 71%; IC50 (read-out: FAAH Inhibition IC50): 38 nM |
| 84 | 37 | Cn1c(=O)n(C(=O)N2CCC2)c2nc(CCc3ccc(F)cc3F)ncc21 | – |

| FAAH Inhibition, Inhibition Rate at 100 nM (100 nM test substance) [%] | IC50 [3] [nM] | Compound | other results |
| --- | --- | --- | --- |
| 93 | 10 | Cc1cc(CCc2ncc3c(n2)n(C(=O)N2CCC2)c(=O)n3C)ccc1F | – |
| 103 | 18 | Cc1cc(-c2ncc3c(n2)n(C)c(=O)n3C(=O)N2CCCC2)ccc1F | – |
| 91 | 19 | Cn1c(=O)n(C(=O)N2CCC2)c2nc(-c3cccc(Cl)c3)ncc21 | – |
| 100 | 10 | CN(C)C(=O)n1c(=O)n(C)c2cnc(CCc3ccccc3Cl)nc21 | – |
| 73 | 56 | CN(C)C(=O)n1c(=O)n(C)c2cnc(-c3ccc(OCC(F)F)cc3)nc21 | – |
| – | – | Cn1c(=O)n(C(=O)N2CCC2)c2nc(CCc3cccc(OCCF)c3)ncc21 | FAAH Inhibition, Inhibition Rate at 100 nM [1]: 26%; IC50 [2]: > 100 nM |
| 101 | 11 | CN(C)C(=O)n1c(=O)n(C)c2cnc(CCc3cccc(OCC4CCC4)c3)nc21 | – |
| – | > 100 | CN(C)CCn1c(=O)n(C(=O)N2CCCC2)c2cnc(-c3ccccc3)nc21 | FAAH Inhibition, Inhibition Rate (1000 nM) (1000 nM test substance (stated in the cell)): 45 (1000 nM) % |
| 106 | 9 | Cn1c(=O)n(C(=O)N2CCC2)c2nc(-c3cccc(OC(F)F)c3)ncc21 | – |
| 125 | 4 | Cn1c(=O)n(C(=O)N2CCC2)c2nc(CCc3cccc(C(F)(F)F)c3)ncc21 | – |
| 97 | 10 | CCCc1cccc(CCc2ncc3c(n2)n(C(=O)N2CCC2)c(=O)n3C)c1 | – |
| 84 | 48 | Cn1c(=O)n(C(=O)N2CCC(=O)C2)c2cnc(-c3ccccc3)nc21 | – |
| – | – | Cn1c(=O)n(C(=O)N2CCC2)c2nc(CCc3ccccc3C(F)F)ncc21 | FAAH Inhibition, Inhibition Rate at 100 nM (at 100 nM): 90%; IC50 (read-out: FAAH Inhibition IC50): 14 nM |
| 109 | 10 | Cn1c(=O)n(C(=O)N2CCC2)c2nc(-c3ccc(C(F)F)cc3)ncc21 | – |
| – | – | Cn1c(=O)n(C(=O)N2CCC2)c2nc(CCc3cccc(OC(F)F)c3)ncc21 | FAAH Inhibition, Inhibition Rate at 100 nM (at 100 nM): 105%; IC50 (read-out: FAAH Inhibition IC50): 5 nM |
| 106 | 10 | Cc1ccc(CCc2ncc3c(n2)n(C(=O)N2CCC2)c(=O)n3C)cc1F | – |
| – | – | Cn1c(=O)n(C(=O)N2CCC2)c2nc(COc3cccc(OC(F)(F)F)c3)ncc21 | FAAH Inhibition, Inhibition Rate at 100 nM [1]: 117%; IC50 [2]: 1 nM |
| 88 | 27 | Cn1c(=O)n(C(=O)N2CCC2)c2nc(CCc3ccc(F)c(C4CC4)c3)ncc21 | – |
| 79 | 30 | Cn1c(=O)n(C(=O)N2CCC2)c2nc(-c3cccc(OCC(F)(F)F)c3)ncc21 | – |
| 103 | 10 | CN(C)C(=O)n1c(=O)n(C)c2cnc(CCc3ccc(OC(F)(F)F)cc3)nc21 | – |
| – | – | Cn1c(=O)n(C(=O)N2CCC2)c2nc(CCc3ccccc3OC(F)(F)F)ncc21 | FAAH Inhibition, Inhibition Rate at 100 nM (at 100 nM): 94%; IC50 (read-out: FAAH Inhibition IC50): 6 nM |
| 70 | 71 | Cn1c(=O)n(C(=O)N2CCC(c3ccccc3)C2)c2cnc(-c3ccccc3)nc21 (centres unmarked) | – |
| – | – | Cn1c(=O)n(C(=O)N2CCC2)c2nc(CCc3ccc(OC4CCC4)cc3)ncc21 | FAAH Inhibition, Inhibition Rate at 100 nM [1]: 79%; IC50 [2]: 29 nM |
| 72 | 52 | Cn1c(=O)n(C(=O)N2CC(c3cccc(F)c3)C2)c2cnc(COCC3CC3)nc21 | – |

| FAAH Inhibition, Inhibition Rate at 100 nM (100 nM test substance) [%] | IC50 [3] [nM] | Compound | other results |
| --- | --- | --- | --- |
| 87 | 37 | Cn1c(=O)n(C(=O)N2CCC2)c2nc(CCc3cc(F)ccc3F)ncc21 | – |
| 78 | 44 | Cn1c(=O)n(C(=O)N2CCC2)c2nc(-c3cccc(OCc4ccccc4)c3)ncc21 | – |
| – | – | CCCOCc1ncc2c(n1)n(C)c(=O)n2C(=O)N1CC(c2cccc(F)c2)C1 | FAAH Inhibition, Inhibition Rate at 100 nM [1]: 69%; IC50 [2]: 32 nM |
| – | – | Cn1c(=O)n(C(=O)N2CCC2)c2nc(COc3cccc(C(F)(F)F)c3)ncc21 | FAAH Inhibition, Inhibition Rate at 100 nM [1]: 95%; IC50 [2]: 11 nM |
| 64 | 55 | CN(C)C(=O)n1c(=O)n(C)c2cnc(CCc3ccccc3OC(F)F)nc21 | – |
| 88 | 14 | Cn1c(=O)n(C(=O)N2CCC2)c2nc(-c3ccc(Cl)cc3)ncc21 | – |
| 75 | 86 | Cc1ccc(-c2ncc3c(n2)n(C(=O)N2CCC2)c(=O)n3C)cc1 | – |
| 78 | 99 | CN(C)C(=O)n1c(=O)n(C)c2cnc(CCc3cccc(OC4CCCC4)c3)nc21 | – |
| – | – | COc1ccc(CCc2ncc3c(n2)n(C(=O)N2CCC2)c(=O)n3C)cc1 | FAAH Inhibition, Inhibition Rate at 100 nM (at 100 nM): 83%; IC50 (read-out: FAAH Inhibition IC50): 28 nM |
| 93 | 10 | Cn1c(=O)n(C(=O)N2CCC2)c2nc(CCc3ccc(F)c(F)c3)ncc21 | – |
| 102 | 10 | Cc1ccc(CCc2ncc3c(n2)n(C(=O)N(C)C)c(=O)n3C)cc1F | – |
| – | – | Cn1c(=O)n(C(=O)N2CCC2)c2nc(COc3ccccc3C(F)(F)F)ncc21 | FAAH Inhibition, Inhibition Rate at 100 nM [1]: 99%; IC50 [2]: 9 nM |
| 90 | 29 | Cn1c(=O)n(C(=O)N2CCC2)c2nc(CCc3cccc(Cl)c3)ncc21 | – |
| 113 | 5 | Cn1c(=O)n(C(=O)N2CCC2)c2nc(-c3ccc(OC(F)F)cc3)ncc21 | – |
| – | – | Cn1c(=O)n(C(=O)N2CCC2)c2nc(CCc3ccccc3Cl)ncc21 | FAAH Inhibition, Inhibition Rate at 100 nM (at 100 nM): 83%; IC50 (read-out: FAAH Inhibition IC50): 34 nM |
| 75 | 23 | CN(C)C(=O)n1c(=O)n(C)c2cnc(CCc3ccc(Cl)cc3)nc21 | – |
| 85 | 25 | Cc1cccc(-c2ncc3c(n2)n(C(=O)N2CCC2)c(=O)n3C)c1 | – |
| 91 | 9 | Cc1ccccc1Cc1ncc2c(n1)n(C(=O)N1CCCC1)c(=O)n2C | – |
| 27 | > 100 | CN(C)C(=O)n1c(=O)n(C)c2cnc(CCc3cccc(OCCF)c3)nc21 | – |
| 109 | 10 | Cn1c(=O)n(C(=O)N2CCC2)c2nc(-c3cccc(C(F)F)c3)ncc21 | – |
| – | – | Cn1c(=O)n(C(=O)N2CCC2)c2nc(CCc3ccccc3OC(F)F)ncc21 | FAAH Inhibition, Inhibition Rate at 100 nM (at 100 nM): 97%; IC50 (read-out: FAAH Inhibition IC50): 14 nM |
| 99 | 9 | Cc1cc(C)c(CCc2ncc3c(n2)n(C(=O)N(C)C)c(=O)n3C)cc1C | – |

Like-named read-outs stand apart in the source and are kept apart here.
